Experimental data taken from ChEMBL document CHEMBL5725897, “Compounds” (2018).

Sequences of proteins named here, by UniProt entry; tags and fusion partners are left off. Residues count along the entry.
UniProt P56704, 19-352 limits assumed: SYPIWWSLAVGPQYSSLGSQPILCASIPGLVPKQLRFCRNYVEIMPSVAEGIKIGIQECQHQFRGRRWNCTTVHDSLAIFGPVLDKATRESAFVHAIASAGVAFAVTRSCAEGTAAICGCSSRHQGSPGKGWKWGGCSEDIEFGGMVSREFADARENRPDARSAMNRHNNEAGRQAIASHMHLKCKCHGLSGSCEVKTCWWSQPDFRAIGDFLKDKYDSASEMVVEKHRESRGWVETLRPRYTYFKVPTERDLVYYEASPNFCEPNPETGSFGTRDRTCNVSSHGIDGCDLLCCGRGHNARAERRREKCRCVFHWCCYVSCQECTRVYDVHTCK

Biological target: Protein Wnt-3a (Homo sapiens, UniProt P56704)

SMILES | IC50 [nM]
COc1ccc(NC(=O)c2ncc(-c3ccccc3)o2)cc1NC(=O)CN1CCOCC1 | 2460
O=C(CN1CCOCC1)Nc1cc(NC(=O)c2cc(-c3ccccc3)[nH]n2)ccc1OC(F)(F)F | 72.5
COc1ccc(C(=O)Nc2ccc(-c3ccccc3F)nc2)cc1NC(=O)CN1CC2CCC(C1)O2 | 133
